Reference: patent publication EP4772508A1, “MACROCYCLIC COMPOUND AND USE THEREOF” (Jiangsu Hengrui Pharmaceuticals Co., Ltd., priority 2023, dated 2025)
Where two headings read alike, the source gives them in different places.

Experiments:
[1] = Relaxivity of the compound in water; assay type: physicochemical; details: deionized water
Description: Test example 1: Relaxivity of the compound in water
Niumag (Suzhou) Nuclear Magnetic Resonance Contrast Agent Relaxivity Analyser with a 0.5 T magnetic field
Bruker Small Animal Magnetic Resonance Imaging System (BioSpec 70/20 USR) with a 7 T magnetic field
1 mL of the test sample was placed in a 1.5 mL EP (eppendorf) tube, and the longitudinal relaxation time T1 and transverse relaxation time T2 under different magnetic field conditions were measured separately using the Niumag (Suzhou) Nuclear Magnetic Resonance Contrast Agent Relaxivity Analyser with a 0.5 T magnetic field. The test sample was loaded into a 0.2 mL sample tube until full, and the longitudinal relaxation time T1 and transverse relaxation time T2 under different magnetic field conditions were measured separately using the Bruker Small Animal Magnetic Resonance Imaging System (BioSpec 70/20 USR) with a 7 T magnetic field.
(§1) Based on the relaxation times T1 and T2 of samples at different concentrations, the relaxivities r1 and r2 were calculated respectively. The relaxivity was calculated according to the following equation: r = (1)/(ΔT)/C, [formula] r: relaxivity; T: relaxation time (s); C: contrast agent concentration (mM).

[2] = Relaxivity of compounds in human plasma; assay type: physicochemical; details: human plasma containing sodium heparin, 0.5 T
Description: as §1

[3] = Metal transfer stability test in the presence of zinc ions; assay type: physicochemical; details: equal volumes 2.5 mM contrast agent and 2.5 mM ZnCl2, phosphate buffer, 37°C, 0.5 T
Description: Test example 4: Metal transfer stability test of compounds in the presence of zinc ions • 1 . Experimental protocol • 2. […] Experiment instruments: VTMR20-010V-I Nuclear Magnetic Resonance Cross-Linking Density Imaging Analyser • 4. Experimental method
A 2.5 mM solution of contrast agent solutions and a 2.5 mM solution of zinc chloride were respectively prepared in phosphate buffer (0.026 mol/L KH2PO4 and 0.041 mol/L Na2HPO4). An equal volume of a 2.5 mM ZnCl2 solution was added to the a 2.5 mM gadolinium contrast agent solution, and the mixture was mixed by shaking. This moment of complete mixing was designated as time zero (t = 0). Immediately thereafter, a 0.5 mL aliquot was withdrawn and subjected to measurement of the longitudinal relaxation time, T1(0), at 37°C and a magnetic field strength of 0.5 T. The mixed solution was then incubated at 37°C. 0.5 mL of the solution was taken at time points of 5 min, 180 min, 1440 min and 5760 min, respectively, to determine T1(t) at different time points. The ratio of the relaxivity at different time points to the initial relaxivity at time 0, namely R1(t)/R1(0), was calculated.

[4] = tested on: canine plasma proteins; details: dog, 1000 µM
Description: After the preparation of plasma samples, 0.5 mL of plasma samples were transferred into ultracentrifugation tubes, with 3 replicates per concentration. After incubation in a CO2 incubator at 37°C for 0.5 h, the samples were subjected to ultracentrifugation at 627,000 g for 3 hours at 37°C. After centrifugation, 100 µL of samples were taken from the central layer of the ultracentrifugation tubes and mixed with 100 µL of blank plasma. The samples were stored at -70°C for subsequent determination.
The plasma protein binding rates of analytes at different concentration levels were calculated using the following formulas: [formula] Binding rate% = 100%−Free rate%. [formula]

[5] = hydrochloric acid pH 1.2, 37°C, 8 × 10^-6 M, 0 h
[6] = hydrochloric acid, 96 h, 8 µM, pH 1.2
[7] = hydrochloric acid, 168 h, 8 µM, pH 1.2

Substance	Relaxivity r1 ([1]; 0.5 T)	Relaxivity r1 ([1]; 7 T)	Gd^3+ Dissociation rate (%) [5]	Gd^3+ Dissociation rate (%) (hydrochloric acid, 24 h, 8 µM, pH 1.2)	Gd^3+ Dissociation rate (%) (hydrochloric acid, 48 h, 8 µM, pH 1.2)	Gd^3+ Dissociation rate (%) [6]	Gd^3+ Dissociation rate (%) [7]	Relaxivity r1 [2]	Gd^3+ Dissociation rate (%) (hydrochloric acid pH 1.2, 37°C, 8 × 10^-6 M, 24 h)	Gd^3+ Dissociation rate (%) (hydrochloric acid pH 1.2, 37°C, 8 × 10^-6 M, 48 h)	R1(t)/R1(0) ([3]; 0 min)	R1(t)/R1(0) ([3]; 5 min)	R1(t)/R1(0) ([3]; 180 min)	R1(t)/R1(0) ([3]; 1440 min)	R1(t)/R1(0) ([3]; 5760 min)	Average% (binding rate) [4]
2,2',2'-(1^3-methoxy-3,6,9-triaza-1(2,6)-pyridine cyclodecane-3,6,9-triyl)tris(5-((2,3-dihydroxypropyl)amino)-5-oxopentanedioic acid)gadolinium (III) complex [Compound 5]	9.3 mM⁻¹ s⁻¹	5.2 mM⁻¹ s⁻¹	BLQ	24.1%	28.7%	32.3%	42.1%	–	–	–	–	–	–	–	–	–
2,2',2'-(1^4-methoxy-3,6,9-triaza-1(2,6)-pyridine cyclodecane-3,6,9-triyl)tris(5-((2,3-dihydroxypropyl)amino)-5-oxopentanedioic acid)gadolinium (III) complex [Compound 4]	15.5 mM⁻¹ s⁻¹	10.7 mM⁻¹ s⁻¹	BLQ	–	–	0.59%	23.9%	16.0 mM⁻¹ s⁻¹	BLQ	BLQ	1	0.77	0.91	0.89	1.05	19.6%
